Laboratory results taken from US20260382635A1, “NITROSYL-HEME FORMULATIONS FOR THE TREATMENT OF CARDIOVASCULAR CONDITIONS, HEMOLYSIS, AND THE STABILIZATION OF CELL-FREE HEME MOLECULES” (published 2026).

Legend:
[1] = test system: mice; experiment: Changes in murine mean arterial pressure (MAP); conditions: for time course of MAP after injection, words: i.v.
Description: A total of 70 male C57BL/6J mice (the Jackson Laboratory), aged between 12 to 14 weeks, were anesthetized by isoflurane (2.5%) for all experiments. Mice were in rooms maintaining 12/12 h light/dark cycles at 20-26 °C and 30-70% relative humidity. 10 of these total mice were used to establish the parameters of the model. Body temperature was maintained at 37 °C by a heating pad connected to heat pump (Androit). Catheters were implanted for carotid artery and jugular vein. Arterial blood pressure was continuously recorded through a blood pressure transducer (MLT699, ADInstrument) connected to an 8-channel Powerlab (ADInstrument). A tracheal tube was introduced and connected to a rodent ventilator (Model 849, MidiVent). Upon completion, in some animals, the fraction of inspiratory O2 was decreased from 21% to 10% to induce hypoxia. 75 μL of L-NAME was administered intravenously in a bolus at a dose of 10 mg/kg bodyweight. Ten minutes after L-NAME injection, animals were injected with 50 μL of NO-ferroheme, normal saline (NS), NO control, or freshly prepared GSNO^77 control for 4 times at 10-minute intervals. An NO-ferroheme in albumin stock was prepared via a concentrated version of the direct method as described above: 300 μM ferric heme was mixed anaerobically on a Schlenk line with 3 mM GSH and 600 μM NO in 500 μM albumin using air-tight Hamilton syringes. NO controls were generated similarly and comprised 300 μM dissolved NO with 3 mM GSH in anaerobic albumin solution. Likewise, GSNO stocks comprised 300 μM GSNO with 3 mM GSH in anaerobic albumin solution. Each of these stocks (NO-ferroheme, NO control, or GSNO control) were handled identically and diluted further in air with 500 μM albumin solution before injection by 1000-, 100-, and 10-fold. Mean arterial pressure (MAP) values were obtained by processed the recorded arterial pressure data with LabChart 7.3.8 (ADInstruments). To quantify changes ΔMAPmax was determined, defined as the average MAP before an injection (average of 3 to 5 time points) subtracted from the maximum change within 3 minutes after injection (average of 3-5 time points) for each species at a given concentration.
Using male C57BL/6J mice, catheters were inserted into the right carotid artery and jugular vein for monitoring MAP and for dose injections, respectively. Fresh NO-ferroheme stock solutions were generated in an anaerobic environment by mixing 300 μM hemin, 3 mM glutathione, 600 μM NO, and 500 μM bovine serum albumin in PBS. To establish that vasodilation was independent of endogenous eNOS-derived NO, mice were first treated with the NOS inhibitor L-NG-nitroarginine methyl ester (L-NAME). Four doses of NO-ferroheme were administered at estimated blood concentrations of 7.5 nM, 75 nM, 0.75 μM, and 7.5 μM. Doses were injected intravenously every ten minutes, long enough for the blood pressure to stabilize.
Injections of NO-ferroheme solution in hypoxic animals were characterized by a rapid, transient relaxation, as monitored by changes in MAP. The MAP almost completely returned to the L-NAME induced baseline after ten minutes when compared to normal saline controls (FIG. 5A). […] These changes were also significant versus normal saline at 75 nM under normoxic conditions (p=0.0002), 0.75 μM and 7.5 μM (p<0.0001, FIG. 5D, open squares vs circles).
This synthesis can involve multiple potential vasodilators including NO itself, GSNO, and NO-ferroheme. Therefore, it was desirable to define the dominant vasodilating species. The vasodilation potency of NO and GSNO was compared. Fresh stocks of NO were made (300 μM NO, 3 mM glutathione, and 500 μM albumin) and mice were injected in 10-minute intervals at the same dosing as the NO-ferroheme albumin injections (7.5 nM, 75 nM, 0.75 μM, and 7.5 μM dissolved NO) under 10% hypoxia and normoxia (FIGS. 5A and 5B, hashed traces). […]

[2] = test system: oxygenated hemoglobin; conditions: 20 °C; cited from earlier work
[3] = test system: oxygenated myoglobin; conditions: 20 °C; cited from earlier work
[4] = test system: apo-myoglobin; experiment: NO-ferroheme transfer from albumin to apo-myoglobin; conditions: GSH 50, 125, 250 μM
Description: NO-ferroheme in albumin was made using 25 μM home and 50 μM NO mixed for five minutes under anaerobic conditions, in pH 7.4 PBS buffer, in the presence of GSH (50, 125, 250 μM) before adding albumin. The NO-ferroheme was incubated with 25 mM albumin for 30 minutes before mixing with 30 μM apomyoglobin under anaerobic conditions. The kinetics were monitored for 330 minutes by UV-Vis absorption spectroscopy. No GSH dependence on the kinetics was observed.
Albumin can mediate vascular NO-ferroheme signaling by transferring from albumin to heme binding protein. To assess and model such transfer, NO-ferroheme albumin was added to an equivalent of apo-myoglobin in an anaerobic solution at 37 °C (FIG. 3E). […] The isosbestic points at 397, 522, and 593 nm indicate direct transfer without formation of any other species or intermediates. Direct formation of NO-myoglobin from apo-myoglobin with NO-ferroheme in membranes is also readily observed (FIG. 10B). […] Thus, direct transfer of NO-ferroheme from solubilizing membranes or albumin to another apo-hemoprotein, like sGC, is feasible.

[5] = NO-ferroheme transfer from albumin to RBC ghost membranes; conditions: 75 μM albumin, 21 °C
Description: FIGS. 10A-10B show other transfers of NO-ferroheme. […] 25 μM ferric heme, 50 μM glutathione, and 50 μM NO were added to 75 μM albumin under deaerated conditions. Addition of RBC ghost membranes results in typical light scattering due to turbidity from insoluble membranes. The mixture was centrifuged at 30,000 g for 2 hours, leaving behind NO-ferroheme in the albumin (hashed line), indicating little transfer to the membranes. FIG. 10B, Direct formation of NO-myoglobin from a mixture of RBC ghost membrane-solubilized NO-ferroheme (from 15 μM hemin, 50 μM NO, and 150 μM GSH) and 20 μM apo-myoglobin. Transfer experiments were conducted at 21 °C.
As labile heme (and thus potentially NO-ferroheme) can be found in membranes, the transfer of NO-ferroheme formed in RBC ghosts to albumin was qualitatively characterized. Ferric heme (25 μM), 50 μM glutathione, and 50 μM NO were added to RBC ghosts under anaerobic conditions at 37 °C (FIG. 3D). After subsequent incubation with albumin, the mixture was centrifuged at 30,000×g for 2 hours to remove membranes. […] Transfer of NO-ferroheme from membranes to albumin is unidirectional under these conditions (FIG. 10A).

[6] = test system: heme-free (apo-) sGC; conditions: in vitro; cited from earlier work

Row | SMILES | change in MAP vs normal saline, words ([1]; 7.5 nM-7.5 μM, except highest dose of dissolved NO (7.5 μM)) | vasodilation, words ([1]; hypoxia, L-NAME, 7.5 nM, 75 nM, 0.75 μM, 7.5 μM i.v.) | NO scavenging rate [2] | NO scavenging rate [3] | GSH dependence of transfer kinetics [4] | transfer of NO-ferroheme from albumin to membranes [5] | vasodilation under hypoxia vs normoxia, words ([1]; 10% vs 21% oxygen) | vasodilatory response vs nitrite, words ([1]; comparable hypoxic conditions) | time course of MAP after injection, words ([1]; hypoxia, L-NAME) | time course of MAP after injection, words ([1]; normoxia, L-NAME) | activation of apo-sGC [6]
1 | [N]=O | no significant changes in MAP | elicited little vasodilatory response | 6-8×10^7 M^−1s^−1 | 6-8×10^7 M^−1s^−1 | – | – | – | – | – | – | –
2 | C=CC1=C(C)c2cc3[nH]c(cc4nc(cc5[nH]c(cc1n2)c(C)c5CCC(=O)O)C(CCC(=O)O)=C4C)c(C)c3C=C.[Fe+2] | – | – | – | – | No GSH dependence on the kinetics was observed | does not transfer to the membranes, but rather remains bound to albumin | elicits similar vasodilation under hypoxia and normoxia | more potent than treatment with nitrite | almost completely returned to the L-NAME induced baseline after ten minutes | rapid drop in MAP followed by blood pressure recovery to baseline MAP | can directly activate heme-free (apo-) sGC in vitro
